## scFv variants of Ab-14 (light chain) against a SARS-CoV-2 spike peptide

Reference: Li et al. 2023, doi:10.1038/s41467-023-39022-2. File: FLAb, binding data.

Target peptide (SARS-CoV-2 spike, HR2 region): PDVDLGDISGINAS

Each scFv is VH, a 15-residue (Gly4Ser)3 linker, VL, as in the parent Ab-14, and differs from it in the CDRs of the light chain only.
VH: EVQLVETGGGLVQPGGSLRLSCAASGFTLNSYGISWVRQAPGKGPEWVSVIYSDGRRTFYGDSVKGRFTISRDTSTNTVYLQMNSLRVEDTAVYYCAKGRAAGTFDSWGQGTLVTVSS
VL: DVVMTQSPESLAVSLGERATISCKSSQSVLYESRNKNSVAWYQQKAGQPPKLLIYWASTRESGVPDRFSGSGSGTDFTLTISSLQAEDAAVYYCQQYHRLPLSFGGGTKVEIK

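The starting antibody came from a phage panning campaign against this peptide. Designed CDR sequences, proposed from the first random library and measured here. Group labels follow the data file (Ctrl: baseline library sampled from a position-specific scoring matrix, with some repeated check sequences; Rand: our label for a block that the file lists under HC and that is probably the random mutants of the ten best first-round binders; GP: Gaussian process model; HC: hill climbing; Gen: genetic algorithm; Gibbs: Gibbs sampling; a sequence that several methods proposed may carry one label only). The scFvs were displayed on barcoded MATa yeast, the peptide on MATalpha yeast. The frequency of each diploid, read from paired DNA barcodes, reflects how well the two displayed proteins bind. A regression on co-assayed BCL2-family reference pairs converts the normalised counts of each replicate to an apparent Kd. The assay was run in six technical replicates.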

Each variant is given by its three light chain CDRs, as the data file delimits them; those of the parent are KSSQSVLYESRNKNSVA, WASTRES, QQYHRLPLS.
Variants here have at most six changes.
The Kd shown is the geometric mean over detected replicates; a lower Kd is a better binder.
A pair that was not seen in any replicate is written "nd"; this usually means weak binding, but a binder can also be missed.
The authors averaged sequences with at least three values out of six and counted those with two or fewer as poor binders.
Three control strains display no target. For all light chain designs, 4% of the pairings with them gave a signal, with a median of 430 nM and one signal in twenty below 38 nM, so weak values seen in few replicates may be background.
Of ten entries with the parent sequence, four were seen in most replicates (averages 2.2 nM to 240 nM), three in one and three in none, so single entries are noisy.
Values of this round are not directly comparable with the first-round values of the same sequences.

With KFSQSVLYESRNKNSVA / WGSTRES / QQYHRLPLS [Ctrl] the result was 5.0 nM (6 of 6 replicates).
With KFQQSVLYESRNKNSVA / NASQRES / QQYHRLPLS [GP_Gen] the result was 810 pM (6 of 6 replicates).
With KLQQSVLYESRNKNSVA / NASQRMS / QQYHRLPLS [GP_Gen] the result was 1.3 nM (6 of 6 replicates).
With KIEQSWLYESRNKNSVA / NASTRES / QQYHRLPLS [GP_Gen] the result was 940 pM (6 of 6 replicates).
With KLRQSTLYESRNKNSVA / DASTRLS / QQYHRLPLS [GP_HC] the result was 660 pM (6 of 6 replicates).
With KISWSVLFESRNKNSVA / DASTRSS / QQYHRLPLS [GP_HC] the result was 860 pM (6 of 6 replicates).
With KSSQSVLYESRNKNSVA / WASTVES / QQYIRLPLS [Ctrl] the result was nd (0 of 6 replicates).
With KSSQSVLYESRNVNSIA / QASTRES / QQYERLPLS [Ctrl] the result was 1.8 nM (6 of 6 replicates).
With KVSQSVKFESRNKNSVA / DASTRES / QQYHRLPLS [GP_HC] the result was 1.1 nM (6 of 6 replicates).
With KSSQSVEYESRNKNSVA / QASTRGS / QQYHVLPLM [Ctrl] the result was 3.7 nM (6 of 6 replicates).
With KSSISYLYESRNINSVA / EASTREQ / QQYHRLPLS [GP_HC] the result was 1.9 nM (6 of 6 replicates).
With KLPQSVLYESRNKNSVA / HASLRED / QQYHRLPLS [GP_HC] the result was 880 pM (6 of 6 replicates).
With HSSDSVLYESRNKNSVA / WASTRES / QQYHRLPLS [Ctrl] the result was 160 nM (1 of 6 replicates).
With KSSQSVDVESRNKNSVA / DASTRES / QQYHRLPLS [GP_HC] the result was 1.1 nM (6 of 6 replicates).
With KVSVSQDYESRNKNSVA / NASTREE / QQYHRLPLS [GP_Gibbs] the result was 1.1 nM (6 of 6 replicates).
With KVSQSVLYESRNKNAVA / QASTRES / QQYHRLPLS [GP_Gen] the result was 360 pM (6 of 6 replicates).
With CSGQSVTYESRNKNSVA / WASTRES / QQYHRLPLS [Ctrl] the result was 7.2 nM (6 of 6 replicates).
With KSSQSVLNESRNKNSVA / GASTRES / GSYHRLPLS [Ctrl] the result was 92 nM (5 of 6 replicates).
With HSSPSVLYESRNKNSVA / NASTRLS / QQYHRLPLS [Rand] the result was 1.8 nM (6 of 6 replicates).
With KSSGSVLYESRNKNSVA / WASTRES / QQYHRLPLS [Ctrl] the result was 9.5 nM (6 of 6 replicates).
With KLPQSELYESRNKNSVA / NASTRCS / QQYHRLPLS [GP_Gen] the result was 910 pM (6 of 6 replicates).
With KTEFSWLYESRNKNSVA / NASERES / QQYHRLPLS [GP_Gibbs] the result was 970 pM (6 of 6 replicates).
With KSSQSVLFEERNKNSVA / WASTRAS / QQYHRLPLS [Ctrl] the result was 7.9 nM (6 of 6 replicates).
With KLSQSKLYESRNKNNVA / NASTRES / QQYHRLPLS [GP_Gen] the result was 190 pM (6 of 6 replicates).
With KMSQSGLYESRNKTSVA / WASTRES / QQYHRLPLS [Ctrl] the result was 480 nM (6 of 6 replicates).
With KLMQSWLYESRNKNSVA / NASTRMS / QQYHRLPLS [GP_Gen] the result was 1.7 nM (6 of 6 replicates).
With KLSQSQLYESRNKNAVA / QASQRES / QQYHRLPLS [GP_Gen] the result was 610 pM (6 of 6 replicates).
With ILWQSQLYESRNKNSVA / NASTREM / QQYHRLPLS [GP_Gibbs] the result was 2.1 nM (6 of 6 replicates).
With KLMQSMLYESRNKNSVA / NASTRMS / QQYHRLPLS [GP_Gen] the result was 870 pM (6 of 6 replicates).
With KVSQSVLYESRNFNSVA / NASTRES / QQYHRLPLS [GP_Gen] the result was 9.1 nM (6 of 6 replicates).
With KSSQSVLQDSRNKNSVA / RASTRES / QQYHRNPLS [Ctrl] the result was nd (0 of 6 replicates).
With KSSESVLYESRNKNSVA / EASTRES / QQYHRLPLS [Ctrl] the result was 1.6 nM (6 of 6 replicates).
With KCSQSVLYESTNKNSVA / WASTRES / QGYHRLPLS [Ctrl] the result was 590 nM (2 of 6 replicates).
With KLSQSVLYESRNSNSVA / DASTRES / QQYHRLPLS [GP_Gen] the result was 1.4 nM (6 of 6 replicates).
With KSSPSVLYESRNKNSVA / HARTRES / QQYHRLPLS [Ctrl] the result was 20 nM (5 of 6 replicates).
With KSSQSVLYESRNKNSVA / WASTRES / QQDHRLPLS [Ctrl] the result was 110 nM (1 of 6 replicates).
With KVSISDLLESRNKNSVA / EASTRES / QQYHRLPLS [GP_HC] the result was 1.3 nM (6 of 6 replicates).
With KSMQSWLYESRNKNGVA / NASTRES / QQYHRLPLS [Ctrl] the result was 550 pM (6 of 6 replicates).

Picked from the list: the 2 lowest averages where every replicate gave a value.

For KLSQSKLYESRNKNNVA / NASTRES / QQYHRLPLS [GP_Gen], the assay gave 190 pM (6 of 6 replicates).
For KVSQSVLYESRNKNAVA / QASTRES / QQYHRLPLS [GP_Gen], the assay gave 360 pM (6 of 6 replicates).